{"source": "paper PMC4540457", "key": {"[1]": {"molecular_target": "δ-opioid receptor-Gi1α (C^351I) fusion protein"}, "[2]": {"molecular_target": "δ-opioid receptor-Gi1α (C^351I) fusion protein", "remark": "listed apart in the source"}, "[3]": {"molecular_target": "δ-opioid receptor-Gi1α (C^351I) fusion protein", "remark": "listed apart in the source"}, "[4]": {"molecular_target": "δ-opioid receptor-Gi1α (C^351I) fusion protein", "remark": "listed apart in the source"}}}
{"substance": "DADLE [Enkephalin (2-D-Alanine-5-D-Leucine)] (peptide)", "values": [{"measurement": "EC50 of DADLE-stimulated [^32P]GTPase, 0.025% Brij-58-treated LDM, PTX-untreated cells", "setting": "[1]", "value": 421, "unit": "nM"}, {"measurement": "EC50 of DADLE-stimulated [^32P]GTPase, post-nuclear supernatant (PNS), PTX-untreated cells", "setting": "[1]", "value": 35.3, "unit": "nM"}, {"measurement": "EC50 of DADLE-stimulated [^35S]GTPγS binding, 0.025% Brij-58-treated LDM, PTX-untreated cells", "setting": "[2]", "value": 81.5, "unit": "nM"}, {"measurement": "EC50 of DADLE-stimulated [^35S]GTPγS binding, post-nuclear supernatant (PNS), PTX-untreated cells", "setting": "[2]", "value": 19.1, "unit": "nM"}, {"measurement": "EC50 of DADLE-stimulated [^35S]GTPγS binding, 0.025% Brij-58-treated LDM, PTX-treated cells", "setting": "[3]", "value": 280, "unit": "nM"}, {"measurement": "EC50 of DADLE-stimulated [^35S]GTPγS binding, LDM (no detergent), PTX-treated cells", "setting": "[3]", "value": 28, "unit": "nM"}, {"measurement": "EC50 of DADLE-stimulated [^35S]GTPγS binding, Percoll-purified PM exposed to 0.006% Brij-58, 30°C", "setting": "[4]", "value": 120, "unit": "nM"}, {"measurement": "EC50 of DADLE-stimulated [^35S]GTPγS binding, Percoll-purified PM, no detergent, 30°C", "setting": "[4]", "value": 24, "unit": "nM"}]}
